We go through one compound from article PMC10304470, “Characterization of the Antimicrobial Activities of Trichoplusia ni Cecropin A as a High-Potency Therapeutic against Colistin-Resistant Escherichia coli” (Pharmaceutics, 2023).

By cell viability is commonly meant the share of living cells, or the viability signal relative to a control. Low values mean a greater loss of cells, high ones better survival.

Series [1] has as its system Pseudomonas aeruginosa (KCCM 11328). It is filed as cell-based. Conditions: P. aeruginosa; MH broth, 2 × 10^5 cells/mL, 16 h, 37 °C, OD600, >95% killing. The source says:
(§1) E. coli (KCTC 1682) was obtained from the Korean Collection for Type Cultures (KCTC, Jeongeup, Republic of Korea), and Acinetobacter baumannii (KCCM 40203) and Pseudomonas aeruginosa (KCCM 11328) from the Korea Culture Center of Microorganisms (KCCM, Seoul, Republic of Korea). Klebsiella pneumoniae (NCCP 16054), colistin-resistant E. coli NMA 1557 (ColREC 1557), NMS 12 (ColREC 12), and colistin-resistant A. baumannii NMS 1915 (ColRAB 1915), as well as colistin-resistant K. pneumoniae NMS 139 (ColRKP 139), were obtained from the National Institute of Health Multidrug Resistant Bacteria Specialized Pathogen Resources Bank (Osong, Republic of Korea).
(§2) The antibacterial abilities of the peptides (T. ni cecropin, cecropin A, polymyxin B, colistin, and melittin) were determined using the broth dilution method as previously reported. The peptides dissolved at 10 mg/mL in deionized water were serially diluted from 64 μM to 0.5 μM in 96-well plates using Mueller–Hinton (MH) broth, and bacteria cultured to exponential growth were added at 2 × 10^5 cells/mL. The group of bacteria that grew untreated in the broth was set as the positive control, and the uninoculated broth as the negative control. […] After 16 h incubation at 37 °C, the absorbance at 600 nm was measured using a SpectraMAX microplate reader (Molecular Devices, San Jose, CA, USA).

Another series deals with RAW 264.7 cells. Kind of series: Cytotoxicity, WST-8. It is filed as cell-based, mouse. The settings on record: 12.5 μM peptide, 24 h. Here is the method:
Murine macrophage RAW 264.7 cells and mouse fibroblast L-929 cells were used for research and were purchased from the Korea Cell Line Bank (Seoul, Republic of Korea). Both cells were cultured in Dulbecco’s Modified Eagle’s Medium (DMEM; Welgene, Gyeongsan, Republic of Korea) supplemented with 10% fetal bovine serum and 1% antibiotics (penicillin/streptomycin) at 37 °C in the presence of 5% CO2. To measure the cytotoxicities of peptides against RAW 264.7 cells and L-929 cells, both cell lines were seeded at a density of 1 × 10^5 cells/well in a 96-well plate, to which each concentration of peptide solution (from 1.6 μM to 100 μM) was added, followed by incubation for 22 h. Subsequently, WST-8 (Biomax Co., Ltd., Guri, Republic of Korea) was added at 10% volume of the final solution, and the mixture was incubated for an additional 2 h. Absorbance was measured at 450 nm. Percentages were calculated based on untreated cells.
Background: Tetrazolium dyes change colour on reduction, which living cells bring about.

Another series concerns E. coli (KCTC 1682). It is filed as cell-based, Escherichia coli. The settings on record: MH broth, 2 × 10^5 cells/mL, 16 h, 37 °C, OD600, >95% killing.
From the text: as §1, §2

Series [2] has as its system sheep red blood cells (sRBCs). Kind of series: Hemolysis. The settings on record: 4% sRBCs in PBS pH 7.4, 1 h, 37 °C, A405; 200 μM applied if no hemolysis at 100 μM. The class given is cell-based. Here is the method:
Sheep red blood cells (sRBCs; KisanBio, Seoul, Republic of Korea) were added to three volumes of phosphate-buffered saline (PBS; 35 mM phosphate buffer containing 150 mM NaCl, pH 7.4) and centrifuged five times at 4 °C, 1000× g for 5 min, followed by a final suspension in PBS at 4% (w/v). Peptides serially diluted from 100 μM to 3.1 μM in PBS at 100 μL in a 96-well plate were prepared, and an equal volume of blood solution was added. After incubation at 37 °C for 1 h, the plates were centrifuged for 5 min at 4 °C, 1000× g. The absorbance of the supernatant was measured at 405 nm. The 100% hemolysis control was 0.1% Triton-X 100 added to the blood solution; the negative control was blood solution added to PBS.

With `CC[C@H](C)[C@H](NC(=O)CN)C(=O)NCC(=O)N[C@@H](C)C(=O)N[C@H](C(=O)N[C@@H](CC(C)C)C(=O)N[C@@H](CCCCN)C(=O)N[C@H](C(=O)N[C@@H](CC(C)C)C(=O)N[C@H](C(=O)N[C@H](C(=O)NCC(=O)N[C@@H](CC(C)C)C(=O)N1CCC[C@H]1C(=O)N[C@@H](C)C(=O)N[C@@H](CC(C)C)C(=O)N[C@H](C(=O)N[C@@H](CO)C(=O)N[C@@H](Cc1c[nH]c2ccccc12)C(=O)N[C@H](C(=O)N[C@@H](CCCCN)C(=O)N[C@@H](CCCNC(=N)N)C(=O)N[C@@H](CCCCN)C(=O)N[C@@H](CCCNC(=N)N)C(=O)N[C@@H](CCC(N)=O)C(=O)N[C@@H](CCC(N)=O)C(N)=O)[C@@H](C)CC)[C@@H](C)CC)[C@@H](C)O)[C@@H](C)O)C(C)C)C(C)C` [melittin], the “Minimal Inhibitory Concentration” value was determined as 32 µM in series [1] and 8 µM in the series on E. coli (KCTC 1682). Besides, the cell viability with RAW 264.7 cells came to 3.1%. Also, the “HC10 (concentration that causes 10% hemolysis in sheep red blood cells)” value in series [2] amounted to 3.1 µM.
